# Results reported in article PMC7738869, “A novel STAT3 inhibitor W2014-S regresses human non-small cell lung cancer xenografts and sensitizes EGFR-TKI acquired resistance” (Theranostics, 2021).
# Tested on: pY705-STAT3 and pY1068-EGFR
# Experiment: Western blot of pY705-STAT3 and pY1068-EGFR in PC-9/GR cells
# Type: cell-based, human
# Settings: W2014-S 1 μM and/or gefitinib 2 μM, 24 h
compound,measurement,value
"COc1cc2ncnc(Nc3ccc(F)c(Cl)c3)c2cc1OCCCN1CCOCC1 [Gefitinib, reference compound]",level of pY705-STAT3 and pY1068-EGFR,not inhibited
